pKi: −log10 of the molar value.
Key:
[1] = molecular target: T1, Rat SERT (Rattus norvegicus, UniProt P31652); assay: Rat brain SERT binding ([3H]-Citalopram displacement)
T1 construct: A rat brain without cerebellum (Zivic Laboratories, Inc.—Pittsburgh, Pa.) was homogenized; tissue Zivic Laboratories, Inc; host or cells: rat brain without cerebellum, membranes

The chains behind the UniProt entries cited, without tags or fusion partners.
UniProt P31652, whole entry: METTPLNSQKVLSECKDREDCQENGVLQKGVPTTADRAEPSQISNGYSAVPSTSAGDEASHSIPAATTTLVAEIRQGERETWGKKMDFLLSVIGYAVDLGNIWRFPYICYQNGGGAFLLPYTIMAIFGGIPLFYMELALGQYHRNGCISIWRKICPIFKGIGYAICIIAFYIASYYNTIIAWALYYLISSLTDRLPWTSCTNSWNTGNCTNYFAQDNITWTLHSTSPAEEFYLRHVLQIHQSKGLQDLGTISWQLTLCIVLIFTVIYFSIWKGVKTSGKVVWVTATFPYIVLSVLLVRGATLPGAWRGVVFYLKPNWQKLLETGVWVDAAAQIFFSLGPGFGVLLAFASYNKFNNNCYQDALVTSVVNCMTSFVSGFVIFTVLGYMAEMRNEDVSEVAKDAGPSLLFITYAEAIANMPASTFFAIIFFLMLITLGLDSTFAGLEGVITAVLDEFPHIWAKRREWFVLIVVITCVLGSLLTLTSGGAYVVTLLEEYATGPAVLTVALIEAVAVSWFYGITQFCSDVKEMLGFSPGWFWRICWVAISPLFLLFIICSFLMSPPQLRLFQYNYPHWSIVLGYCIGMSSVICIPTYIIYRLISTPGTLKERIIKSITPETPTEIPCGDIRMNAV

[2] = tested on: H3 receptor; details: Imetit (1 mg/kg) i.p. alone, drinking measured for 60 min, average ± s.e.m.

pKi [1] | SMILES | Water Consumed [2]
8.52 | c1ccc([C@H]2CN3CCC[C@H]3c3cc(OCCCN4CCCCC4)ccc32)nc1 (relative stereo) [Example 25] | 
7.70 | c1cc([C@@H]2CN3CCC[C@H]3c3cc(OCCCN4CCCCC4)ccc32)ccn1 (relative stereo) [Example 27A, Cis-9-(3-Piperidin-1-yl-propoxy)-6-pyridin-4-yl-1,2,3,5,6,10b-hexahydro-pyrrolo[2,1-a]isoquinoline] | 
7.59 | c1cc([C@H]2CN3CCC[C@H]3c3cc(OCCCN4CCCCC4)ccc32)ccn1 (relative stereo) [Example 27B, Trans-9-(3-Piperidin-1-yl-propoxy)-6-pyridin-4-yl-1,2,3,5,6,10b-hexahydro-pyrrolo[2,1-a]isoquinoline] | 
 | N=C(N)SCCc1cnc[nH]1 [Imetit, imetit, reference compound] | 2.53 ± 0.60 mL

Source: patent US8273762B2, “Hexahydro-pyrrolo-isoquinoline compounds” (Janssen Pharmaceutica NV, priority 2005, dated 2012)
